Data taken from patent US20060281719A1, “Oestrogen-17-sulphamates as inhibitors of steroid sulphatase” (priority 2000, published 2006).

Sequences of proteins named here, by UniProt entry; tags and fusion partners are left off. Residues count along the entry.
UniProt P08842, 22-583: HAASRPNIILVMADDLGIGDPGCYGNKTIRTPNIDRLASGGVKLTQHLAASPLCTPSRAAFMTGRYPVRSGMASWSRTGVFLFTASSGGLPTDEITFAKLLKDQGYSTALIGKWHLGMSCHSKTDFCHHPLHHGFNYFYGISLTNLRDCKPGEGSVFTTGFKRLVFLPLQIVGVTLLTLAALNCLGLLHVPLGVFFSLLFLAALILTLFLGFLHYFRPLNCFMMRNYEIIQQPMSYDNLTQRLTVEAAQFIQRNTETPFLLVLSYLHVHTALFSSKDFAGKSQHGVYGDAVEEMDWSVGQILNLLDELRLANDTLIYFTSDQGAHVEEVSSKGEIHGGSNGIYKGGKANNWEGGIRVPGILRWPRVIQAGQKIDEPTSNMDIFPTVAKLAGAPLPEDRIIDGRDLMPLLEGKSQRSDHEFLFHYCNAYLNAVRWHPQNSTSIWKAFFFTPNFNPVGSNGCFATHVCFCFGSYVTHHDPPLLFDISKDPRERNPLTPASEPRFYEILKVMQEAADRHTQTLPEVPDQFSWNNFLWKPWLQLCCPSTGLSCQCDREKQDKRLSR

How the values were obtained:
tubulin = assay: Colchicine Displacement Assay (tubulin binding)
Experimental: Colchicine Displacement Assay
The protocol for this assay for tubulin binding is given below. [drawing 62]
Suitable blanks, controls are maintained at the same time and total counts added is determined.

[1] = biological target: oestrone sulphatase (E1-STS) (Homo sapiens, UniProt P08842); design: from tissue; host or cells: human term placenta (microsomal preparation); details: placental microsomes preparation; cited from earlier work

SMILES	Colchicine Displacement Assay (%) (tubulin)	potency against STS relative to EMATE [1]
COc1cc2c(c(OC)c1OC)-c1ccc(OC)c(=O)cc1[C@@H](NC(C)=O)CC2 [Colchicine]	79%	
NS(=O)(=O)Oc1ccc2c3c(c(=O)oc2c1)CCCCC3 [Compound 667COUMATE]		~3 fold
